# Experimental data: ChEMBL document CHEMBL4145683, “Total Synthesis and Structure-Activity Relationships Study of Odilorhabdins, a New Class of Peptides Showing Potent Antibacterial Activity” (J Med Chem, 2018)
# Test system: Escherichia coli
# Conditions: ATCC 25922
sequence,measurement,value
GENTAMICIN,MIC,0.5 µg/mL
